# Measurements as given in patent publication US20060292076A1, “Antimicrobial mediated ozone generation” (priority 2002, published 2006).
# Assay: Production of hydrogen peroxide by immunoglobulins and proteins under UV irradiation (Amplex Red assay)
# Format: biochemical
# Conditions: irradiation in PBS
# Description: All assays were carried out in PBS (10 mM phosphate/160 mM sodium chloride, pH 7.4). Commercial protein solution samples were dialyzed into PBS as necessary. Amplex Red hydrogen peroxide assay kits (A-12212) were obtained from Molecular Probes.
# Antibody/Protein Irradiation. Unless otherwise stated, the assay solution (100 μl, 6.7 μM protein in PBS, pH 7.4) was added to a glass vial, sealed with a screw-cap, and irradiated with either UV (312 nm, […] Fischer-Biotech transilluminator) or visible light.
# Quantitative Assay for Hydrogen Peroxide. An aliquot (20 μl) from the protein solution was removed and added into a well of a 96-well microtiter plate (Costar) containing reaction buffer (80 μL). Working solution (100 μl/400 μM Amplex Red reagent ½ units/ml horseradish peroxidase) was then added, and the plate was incubated in the dark for 30 min. The fluorescence of the well components was then measured using a CytoFluor Multi well Plate Reader (Series 4000, PerSeptive Biosystems, Framingham, Mass.; Ex/Em: 530/580 nm). The hydrogen peroxide concentration was determined using a standard curve. All experiments were run in duplicate, and the rate is quoted as the mean of at least two measurements.
substance,measurement,setting,value
β2-microglobulin: member of the immunoglobulin superfamily,ability of non-immunoglobulin proteins to reduce ^1O2 / generate H2O2,,does not generate H2O2
same,ability of non-immunoglobulin proteins to reduce ^1O2 / generate H2O2,listed as Human β2-microglobulin,does not generate H2O2
same,ability of non-immunoglobulin proteins to reduce ^1O2 / generate H2O2,listed as β2-macroglobulin,does not generate hydrogen peroxide
